# How the values were obtained:
# Amino acid sequences for entries named in this document (tags omitted).
# UniProt Q9HCE7, whole entry: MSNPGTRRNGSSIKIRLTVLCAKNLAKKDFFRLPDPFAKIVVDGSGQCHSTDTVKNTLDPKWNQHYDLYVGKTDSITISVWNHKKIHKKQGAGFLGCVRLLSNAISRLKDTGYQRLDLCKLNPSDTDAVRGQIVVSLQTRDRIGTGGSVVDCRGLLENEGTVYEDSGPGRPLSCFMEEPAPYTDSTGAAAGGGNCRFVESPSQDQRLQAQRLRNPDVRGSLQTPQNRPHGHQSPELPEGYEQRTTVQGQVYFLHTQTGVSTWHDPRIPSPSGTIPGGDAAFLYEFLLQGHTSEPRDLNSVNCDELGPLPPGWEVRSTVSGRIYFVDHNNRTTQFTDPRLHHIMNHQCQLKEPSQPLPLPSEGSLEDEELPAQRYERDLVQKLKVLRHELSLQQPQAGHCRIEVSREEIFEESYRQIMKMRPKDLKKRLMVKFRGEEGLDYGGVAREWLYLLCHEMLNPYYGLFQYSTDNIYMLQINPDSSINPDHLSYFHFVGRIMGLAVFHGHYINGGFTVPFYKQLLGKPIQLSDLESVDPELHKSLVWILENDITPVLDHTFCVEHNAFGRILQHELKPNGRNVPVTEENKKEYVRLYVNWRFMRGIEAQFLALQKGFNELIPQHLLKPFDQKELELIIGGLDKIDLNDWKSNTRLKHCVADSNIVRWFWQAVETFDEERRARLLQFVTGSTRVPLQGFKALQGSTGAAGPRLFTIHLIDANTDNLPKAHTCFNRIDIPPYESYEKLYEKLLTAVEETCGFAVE
# [1] = test system: human osteosarcoma (HOS) cells; assay: FRET fluorescence recovery analysis in Smurf-1-positive cells; conditions: positive for Smurf-1 expression, FITC/BHQ-1 quenched peptides
# From the text: (§1) In order to investigate the binding interaction between the bioactive peptide (SBP) sequence and Smurf-1 by a quenching strategy referred to as fluorescence resonance energy transfer (FRET), the fusion peptide was further modified with an activatable fluorescent dye. BHQ-1 can quench fluorescence of fluorescein isothiocyanate (FITC) with high efficiency. […] This is likely the result of a structural change in the peptide caused by relatively large Smurf-1. In order to examine the following results in vitro, FRET analysis was performed on human osteosarcoma (HOS) cells, which are positive for Smurf-1 expression, and mouse fibroblasts (NIH3T3), which are negative for Smurf-1 expression (FIG. 3).
# [2] = test system: mouse fibroblasts (NIH3T3); assay: FRET fluorescence recovery analysis in Smurf-1-negative cells; conditions: negative for Smurf-1 expression, FITC/BHQ-1 quenched peptides
# From the text: as §1
# [3] = target: human-derived Smurf1 protein (Homo sapiens, UniProt Q9HCE7); assay: Surface plasmon resonance (BIACORE T100) binding and kinetic analysis of peptides on immobilized Smurf1
# Protocol: Data are presented as mean ± standard error of the mean (*p < 0.05, ***p < 0.01).
# In order to chemically confirm the binding affinity between the fusion peptide synthesized by the method of Example 1, and Smurf1, human-derived Smurf1 protein acting as a ligand in this experiment was purchased from OriGene Technologies (Rockville, MD, USA). 100 mg/mL of the protein was immobilized on a gold-coated surface of a CM5 chip (Cytiva, Sweden), in which amino groups were bound to the surface, using an EDC/NHS kit (BIACORE AB, Sweden) (the above experimental method may alternatively use "Immobilization" embedded in BIACORE T100 (BIACORE AB, Sweden) software used by the present inventors). At this time, in order to find an appropriate pH condition under which the protein can bind to amino groups of the CM5 chip, a method referred to as "pH scouting" was performed to determine a pH condition. For the "pH scouting" experimental method, the method embedded in BIACORE T100 (BIACORE AB, Sweden) software used by the present inventors may alternatively be used. After immobilizing the ligand under the pH condition determined by this method, analytes (the fusion peptide synthesized in Example 1, the cell-penetrating peptide of Comparative Example 1 used as a negative control, and the inflammatory marker-binding sequence of Comparative Example 2 used as a positive control) were each flowed over the CM5 chip at 10 mM, and binding affinity was measured (the above experimental method may alternatively use "binding analysis" embedded in BIACORE T100 (BIACORE AB, Sweden) software used by the present inventors).
sequence,measurement,setting,value
SSRKKNPNCRRH,fluorescence signal,[1],recovery of a fluorescence signal was not observed
same,fluorescence signal,[2],recovery of a fluorescence signal was not observed
same,apparent association constants (KA),[3]; SPR,412900 M⁻¹
same,apparent dissociation constants (KD = 1/KA),[3]; SPR,2422 nM
same,Ka (1/MS),"[3]; SPR association rate, Table 1",2447 1/MS
same,Kd,"[3]; SPR dissociation rate, Table 1",0.005927 s⁻¹
same,binding affinity to Smurf1,"[3]; SPR response, analytes each flowed over the CM5 chip at 10 mM",100 RU
same,KA,"[3]; SPR, Table 1",412900 M⁻¹
same,Rmax (RU),"[3]; SPR, Table 1",22.4 RU
